Results on one substance are retold here after patent publication US6683162B2, “Targeted alpha particle therapy using actinium-255 conjugates” (Sloan Kettering Institute of Cancer Research, priority 2000, dated 2004).

The test concerns human BT-474 breast carcinoma cells. Description: In vitro cytotoxicity (LD50), BT-474. The conditions noted are these: BT-474 (specific); S.A. 1.9 GBq/g. The class given is cell-based. Here is the method: The potency and specificity of 225Ac-HuM195-DOTA was then evaluated in-vitro as a function of specific activity and activity concentration (FIG. 6). A suspension of HL60 cells were washed twice with complete media and then dispensed into a 96 well cell culture plate in complete media supplemented with 2% human serum. The volume was 100 μl and the cells were at a density of 5×10^5 cells/ml. Next a serial dilultion of purified ^225Ac-HuM195-DOTA was added to the wells. The diluent was complete media and volume added was 100 μl. The starting activity was 10 nCi/ml, which was diluted 5-fold for each subsequent tube. […] The cells were incubated for 2 days at 37° C., following which tritiated thymidine was added (0.5 pC, in 50 il complete media/well). The cells were incubated at 37° C. for an additional 5 h, then harvested using a Combi Cell Harvestor (Skatron Instruments). Cell viability was determined by analyzing the degree of tritiated thymidine incorporated into the DNA of the treated cells relative to control cells.
The potency and specificity of [225Ac]IgG for killing single cancer cells is determined using 5E4 cells in 0.2 mL per well in 96 well plates. […] Non-specific killing is measured after target cells are blocked with a 100-10000-fold excess of unlabeled IgG before plating and subsequent addition of [225Ac]IgG.

In turn, “[Ac-225]Herceptin: 225Ac generator on Herceptin, humanized IgG1 directed against HER2” registered an LD50 of 5.6 Bq/mL.
